Biological target: IDO1 enzyme in Hela cells (Homo sapiens, UniProt P14902)
Test: Inhibition of IDO1 enzyme in IFN-γ stimulated Hela cells (kynurenine read at 480 nm)
Format: cell-based
Settings: read-out: Inhibition rate IC50 (nmol/L) on IDO1 enzyme activity in Hela cells

The chains behind the UniProt entries cited, without tags or fusion partners.
UniProt P14902, whole entry: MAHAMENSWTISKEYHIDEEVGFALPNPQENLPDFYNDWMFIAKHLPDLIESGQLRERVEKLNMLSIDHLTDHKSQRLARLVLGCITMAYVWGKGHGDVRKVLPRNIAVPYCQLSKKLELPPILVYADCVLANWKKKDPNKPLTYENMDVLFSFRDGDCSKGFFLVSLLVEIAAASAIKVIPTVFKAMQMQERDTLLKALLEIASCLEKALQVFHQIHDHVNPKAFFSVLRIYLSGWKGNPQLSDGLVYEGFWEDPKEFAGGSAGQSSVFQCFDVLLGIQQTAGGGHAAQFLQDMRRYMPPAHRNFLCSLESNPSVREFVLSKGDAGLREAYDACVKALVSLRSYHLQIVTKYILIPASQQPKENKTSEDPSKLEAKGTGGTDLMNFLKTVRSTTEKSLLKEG

IC50: 1.56 nmol/L
SMILES: Cc1ccc(NC(=O)Nc2cc([C@H]3C[C@H]3C(=O)O)ccc2N(CC(C)C)CC(C)C)cc1 (single isomer, unassigned)

Reference: US11370762B2, “Vinylarene derivative and application” (SHENYANG RESEARCH INSTITUTE OF CHEMICAL INDUSTRY CO., LTD., priority 2017, dated 2022)
